Here are results for 2 compounds from PubChem BioAssay AID1537 (The Scripps Research Institute Molecular Screening Center, 2009).

Amino acid sequences for entries named in this document (tags omitted). A change or cut given only in a name is not applied to a line headed by its entry.
UniProt O75884: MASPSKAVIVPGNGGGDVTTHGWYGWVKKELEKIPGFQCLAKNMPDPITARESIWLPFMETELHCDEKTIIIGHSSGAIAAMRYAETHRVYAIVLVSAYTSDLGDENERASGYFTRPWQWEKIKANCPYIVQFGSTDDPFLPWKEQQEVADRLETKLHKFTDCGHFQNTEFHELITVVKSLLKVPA

This assay concerns the target Serine hydrolase RBBP9 (Homo sapiens) (UniProt O75884). Nature of the assay: human RBBP9 inhibitors, retest, confirmation, biochemical, fluorescence polarization, FP-Rh probe, triplicate (AID 1537).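 Also: 0% = RBBP9 with DMSO and 100% = wells lacking RBBP9 protein.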 The note with it: recombinant RBBP9, FP-Rh probe fluorescence polarization; at 7.94 µM; stronger effect = higher value. (In fluorescence polarisation assays a small probe gives low polarisation when free and higher when bound to something large.)

This is a selection; strong and weak results do not stand in their true shares. Activity calls are given as the source filed them.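 The calls were made as follows: active = inhibition above the hit cutoff derived for the primary screen (cut at about 15% in these data); inactive = the rest.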

Consider `CS(=O)(=O)c1cc([N+](=O)[O-])c2no[n+]([O-])c2c1`, for which the inhibition (as a rule, the share of the control response that was lost under treatment) was active: 48.8%.
In the case of `O=[N+]([O-])c1cc([N+](=O)[O-])c(CCNc2ccccc2)c([N+](=O)[O-])c1` it was active: 20.9%.
